According to PubChem BioAssay AID1645851 (National Center for Advancing Translational Sciences (NCATS), 2021):
This is a selection; strong and weak results do not stand in their true shares. Activity calls are given as the source filed them. Cut-off read from the data, not from the text of the source: active = activity change below about -25%; inactive = the rest.

By UniProt entry, the sequences of proteins in these tests, tags left out.
UniProt Q92551, whole entry: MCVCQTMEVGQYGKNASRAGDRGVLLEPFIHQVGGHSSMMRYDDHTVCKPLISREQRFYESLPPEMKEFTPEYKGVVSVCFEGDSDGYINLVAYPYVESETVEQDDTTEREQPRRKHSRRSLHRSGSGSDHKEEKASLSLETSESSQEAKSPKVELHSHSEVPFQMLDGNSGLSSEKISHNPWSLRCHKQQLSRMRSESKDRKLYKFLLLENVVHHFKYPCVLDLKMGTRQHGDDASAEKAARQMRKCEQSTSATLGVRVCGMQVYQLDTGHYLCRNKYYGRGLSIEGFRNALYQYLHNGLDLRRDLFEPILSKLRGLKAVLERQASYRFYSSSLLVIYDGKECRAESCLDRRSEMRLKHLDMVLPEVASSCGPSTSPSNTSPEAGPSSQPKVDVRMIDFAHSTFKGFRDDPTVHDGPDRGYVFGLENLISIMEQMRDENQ

Target: Inositol hexakisphosphate kinase 1 (Homo sapiens) (UniProt Q92551)
Assay: Primary qHTS assay for small molecule inhibitors of Inositol hexaphosphate kinase 1 (IP6K1); note: series mostly up to about 58 µM
Conditions: ADP-Glo luminescence, 2 h, hits give low values
From the text: Assay Provider: Huijun Wei, M.S., Ph.D. School of Medicine, Johns Hopkins University, Baltimore, MD Inositol hexakisphosphate kinases (IP6Ks) catalyze pyrophosphorylation of inositol hexakisphosphate (IP6) into inositol 5-diphospho-1,2,3,4,6-pentakisphosphate (IP7), which is involved in numerous areas of cell physiology including glucose homeostasis, blood coagulation and neurological development. Inhibition of IP6Ks may be effective for the treatment of Type II diabetes, thrombosis, and psychiatric disorders. We performed a quantitative high throughput screen (qHTS) of 158,410 compounds for IP6K1 inhibitors using ankinase activity ADP-Glo Max assay. […] Medicinal chemistry SAR efforts in three chemical series identified potent IP6K1 inhibitors, which were further validated in an orthogonal LC-MS IP7 analysis.
PROTOCOL TABLE SEQUENCE No. (e.g., 1, 2, 3, etc.); […] (e.g., Cells, Incubation, Reagent, etc.); VALUE and DESCRIPTION. 1. Reagent, 3 uL of 1.3 mM ATP and 130 uM IP6 mixture in assay buffer was dispensed to a white, 1536-well assay plate. 2. Compound, 23 nL of compounds of the top two doses (57.5 uM and 19.1 uM final concentration) of the libraries were dispensed into the mixture using the Kalypsis pintool. 3. Reagent, 1 uL of 2.4 uM IP6K1 was dispensed to the assay plates. 4. Incubation, 2 hr incubation at room temperature. 5. Reagent, 2 uL of ADP-Glo reagent was added to the wells. 6. Incubation, 1 hr incubation at room temperature. 7. Reagent, 4 uL or ADP-Glo substate was added to the wells. 8. Incubation, 45 min incubation at room temperature. 9. Detection, luminescence signal was detected using the ViewLux microplate imager (PerkinElmer).
% is set by controls: 0 for no effect and ±100 for the full control effect.

Structure (SMILES)	activity change
CN(CCCl)CCCl	inactive: 5.69%
CCC(=O)N(c1ccccc1)C1(COC)CCN(CCn2nnn(CC)c2=O)CC1	inactive: -10.9%
CCC(=O)N(c1ccccc1)C1(COC)CCN(CCc2cccs2)CC1	inactive: -24.4%
